Measurements from US20020115843A1.

Experiments:
Assay in all cases: cell-based or functional assay
[1] = target: dipeptidyl peptidase IV (DPPIV) (UniProt P27487)
[2] = target: myc-His tagged DPRP-1 (expressed from pcDNA-MycHis-DPRP1) (human) (UniProt Q6V1X1)
[3] = target: myc-His tagged DPRP-2 (expressed from pcDNA-MycHis-DPRP2) (human) (UniProt Q86TI2)

Residual activity (% of control), Ala-Pro-AMC cleavage, inhibitor at 5 µg/ml [1]: 80.2 % of control
Residual activity (% of control), Ala-Pro-AMC cleavage, inhibitor at 5 µg/ml [2]: 77.5 % of control
Residual activity (% of control), Ala-Pro-AMC cleavage, inhibitor at 5 µg/ml [3]: 63.2 % of control
Substance: Aprotinin (from UniProt P00974 36-93)
